The text below walks through data of ChEMBL document CHEMBL2021892, “Rational design, synthesis and anti-proliferative properties of new CB2 selective cannabinoid receptor ligands: an investigation of the 1,8-naphthyridin-2(1H)-one scaffold” (Eur J Med Chem, 2012).

Sequences of proteins named here, by UniProt entry; tags and fusion partners are left off.
UniProt P21554, whole entry: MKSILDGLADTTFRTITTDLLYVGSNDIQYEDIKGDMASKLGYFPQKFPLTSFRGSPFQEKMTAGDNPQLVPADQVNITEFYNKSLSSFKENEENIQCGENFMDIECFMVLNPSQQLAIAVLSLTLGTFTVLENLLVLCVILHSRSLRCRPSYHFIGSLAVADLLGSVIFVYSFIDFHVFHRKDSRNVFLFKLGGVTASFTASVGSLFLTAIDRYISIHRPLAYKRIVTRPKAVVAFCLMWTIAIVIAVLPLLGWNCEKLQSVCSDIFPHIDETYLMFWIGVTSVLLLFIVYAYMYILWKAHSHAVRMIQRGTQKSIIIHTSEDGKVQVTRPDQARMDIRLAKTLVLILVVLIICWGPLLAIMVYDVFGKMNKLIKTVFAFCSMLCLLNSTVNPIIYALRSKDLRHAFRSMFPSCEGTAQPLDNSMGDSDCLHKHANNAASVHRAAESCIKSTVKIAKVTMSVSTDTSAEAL

The target in the assay is Cannabinoid receptor 1 (Homo sapiens, UniProt P21554). As to the kind of experiment: Displacement of [3H]CP55940 from recombinant human CB1 receptor expressed in human HEK293 cell membrane after 90 mins. Format: cell membranes. Summed up:
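Membranes of HEK-293 cells transfected with human recombinant CB1R (Bmax 2.5 pmol/mg protein) or CB2R (Bmax 4.7 pmol/mg protein). Test compound at increasing concentrations displaced [3H]CP55,940 over 90 min at 30 °C. Ki obtained from IC50 by Cheng–Prusoff. Means of at least three experiments run in duplicate.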

For `Cc1ccc(Cn2nc(C(=O)N[C@@H]3C(C)(C)[C@@H]4CC[C@@]3(C)C4)cc2-c2ccc(Cl)c(C)c2)cc1`, the inhibition constant Ki (as a rule, the dissociation constant of the complex between target and ligand, obtained from inhibition or displacement) was determined as 121 nM.
